{"source": "patent US10413607B2", "about": "“Antibody specifically binding to ErbB3 and use thereof” (ISU ABXIS CO., LTD., priority 2015, dated 2019)", "tested_on": "DiFi colon cancer cells", "test": "Cetuximab resistance, DiFi colorectal cancer cell proliferation with HRG", "assay_type": "cell-based", "details": "about 72 hours, FIG. 11", "procedure": "Cetuximab is effective in suppressing cancer cell proliferation in DiFi colorectal cancer cells, but loses its efficacy in the presence of HRG due to the activation of an ErbB3 signal transduction pathway. An investigation was carried out to assess the ability of the screened antibodies to overcome resistance to Cetuximab and impart cancer cell proliferation suppression effects.\nIn particular, DiFi colon cancer cells were incubated in RPMI-1640 medium (Invitrogen) including an antibiotic (Penicillin-Streptomycin, Invitrogen) and 10% FBS. About 1×10^4 DiFi cells were inoculated onto a 96-well plate and incubated at 37° C. under 5% CO2 conditions for about 24 hours. Cetuximab and anti-ErbB3 antibody were mixed together in equal concentrations of 200 μg/mL to obtain an Cetuximab/anti-ErbB3 antibody solution, which was then mixed with an equal amount of HRG (40 ng/mL). The Cetuximab/anti-ErbB3 antibody/HRG solution was applied to a 96-well plate and incubated at 37° C. under 5% CO2 conditions for about 72 hours. Cells cultured without antibodies and HRG were used as a negative control group. The number of viable cells was measured using a CellTiter-Glo luminescent cell viability assay (Promega). Cell proliferation rates were calculated based on the measured results. The results are shown in FIG. 11, in which *** denotes t-test results (p<0.001).", "data": [{"substance": "Cetuximab", "values": [{"measurement": "cell proliferation suppression effect", "result": "reduced in the presence of HRG"}]}]}
